Data published in US11951108B2, “Combination therapy for treating cancer” (Epizyme, Inc., priority 2016, dated 2024).

Experiments:
COV644* = experiment: In vitro combination study, ovarian cancer cell line COV644; conditions: 7+3 model

Synergy or antagonism of second agent with tazemetostat (IC50 shift of second agent) (COV644*): B (Synergy > 4× IC50 shift)
SMILES: CS(=O)(=O)CCNCc1ccc(-c2ccc3ncnc(Nc4ccc(OCc5cccc(F)c5)c(Cl)c4)c3c2)o1 [Lapatinib]
Synergy or antagonism of second agent with tazemetostat (IC50 shift of second agent) (COV504): C (key: B: Synergy > 4× IC50 shift; Synergy > 2× IC50 shift; No Effect; Antagonism; X: Not Tested)
